Assay results taken from patent EP0072531A1, “Derivatives of cyclophosphamide, process for their preparation and their use” (dated 1983).

Test: toxicity (LD50) compared with cyclophosphamide
Details: multiple of the LD50 of Cyclophosphamid; no species or route printed

## O=P1(N(CCCl)CCCl)NCC(O)CO1 (stereo not shown)
  LD50: lo
